In US10716795B2, “Steroid analogues for neuroprotection” (Emory University, priority 2008, dated 2020):

Target: T1, classical progesterone receptor (PR) (Homo sapiens, UniProt P06401)
T1 sequence (P06401 1-933): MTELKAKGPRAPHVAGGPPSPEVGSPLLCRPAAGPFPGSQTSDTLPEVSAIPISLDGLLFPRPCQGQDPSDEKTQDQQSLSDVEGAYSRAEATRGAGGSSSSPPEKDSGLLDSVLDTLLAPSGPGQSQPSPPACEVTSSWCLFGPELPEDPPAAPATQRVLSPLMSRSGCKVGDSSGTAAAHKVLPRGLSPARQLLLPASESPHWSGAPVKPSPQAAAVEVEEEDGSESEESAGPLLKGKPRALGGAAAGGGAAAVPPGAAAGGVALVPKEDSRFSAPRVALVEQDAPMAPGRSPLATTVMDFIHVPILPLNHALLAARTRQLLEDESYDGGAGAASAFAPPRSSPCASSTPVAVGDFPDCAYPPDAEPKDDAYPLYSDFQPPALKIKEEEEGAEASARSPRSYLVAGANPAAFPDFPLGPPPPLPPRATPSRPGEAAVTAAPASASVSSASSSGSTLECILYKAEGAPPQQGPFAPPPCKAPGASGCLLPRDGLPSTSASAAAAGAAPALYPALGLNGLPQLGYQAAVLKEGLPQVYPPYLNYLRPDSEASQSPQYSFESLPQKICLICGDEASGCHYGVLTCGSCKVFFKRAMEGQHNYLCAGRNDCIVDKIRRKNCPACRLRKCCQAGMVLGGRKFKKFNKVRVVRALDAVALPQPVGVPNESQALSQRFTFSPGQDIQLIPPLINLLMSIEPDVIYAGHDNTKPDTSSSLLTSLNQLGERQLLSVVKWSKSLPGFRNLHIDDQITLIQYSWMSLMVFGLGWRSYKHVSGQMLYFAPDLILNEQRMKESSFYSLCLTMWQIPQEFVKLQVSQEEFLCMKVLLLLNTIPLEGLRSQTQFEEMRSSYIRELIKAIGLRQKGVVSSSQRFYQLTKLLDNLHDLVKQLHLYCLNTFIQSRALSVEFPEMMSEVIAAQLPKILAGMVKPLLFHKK
Assay: binding to the classical progesterone receptor

affinity for progesterone receptor: moderate affinity
SMILES: CC(=O)[C@@H]1CCC2C3CCC4=CC(=O)CC[C@@]4(C)C3CC[C@]21C (stereo partly drawn) [ent-PROG, ent-Progesterone]
